Columns and labels:
[1] = target: T1, Human CXCR2 (Homo sapiens, UniProt P25025); experiment: Tango CXCR2-bla U2OS cell-based β-arrestin recruitment assay; design: The beta-arrestin/TEV protease fusion and the beta-lactamase reporter are separate parts of the cell line; details: comparison with comparators
Text: Cells were thawed, propagated, cultured and frozen according to the manufacturer's directions.
Preparation of Tango™ CXCR2-bla U2OS cells for use in cell-based assays: The manufacturer's protocol was altered to make use of 96-well plates instead of 384-well plates. Briefly, dividing cells were harvested one day prior to use. Cells were harvested and resuspended in assay medium (100% FreeStyle™ Expression Medium; Life Technologies; Cat #12338-018) at a viable cell density of 312,500 cells/mL. 128 μL of cell suspension was added per well in 96-well black-walled, clear bottom tissue culture-treated plates. Cells were incubated for 16-20 hrs at 37° C. in an atmosphere of 5% CO2 prior to use in assays.
Tango™ assay procedure: Assays were set up and run as described in the manufacturer's protocol. For antagonist assays, agonists were used at concentrations in the EC50-EC80 range. Assays were read using a FlexStation® 3 (Molecular Devices) fluorescence plate reader configured with the parameters given in Table 4. The blue/green emission ratio for each well was calculated by dividing the blue emission values by the green emission values. All inhibition curves were fitted using a four-parameter dose-response using GraphPad Prism™ (Version 7.01).
The Human CXCR2 Tango™ cell line was used to assess the ability of antibody BKO-4A8-101c to inhibit β-arrestin recruitment to agonist-activated CXCR2. All human ELR+ chemokine CXCR2 ligands were tested in antagonist dose response assays using calculated EC50 values of agonist.
The commercially available reporter cell line Tango™ CXCR2-bla U2OS (ThermoFisher Scientific) was used to assess the ability of the anti-CXCR2 antibodies to inhibit β-arrestin recruitment to agonist-activated CXCR2. Agonists were provided at their assay EC50 concentration for antagonist assays.

Chains of the proteins cited; added tags and fusions are not shown.
UniProt P25025, whole entry: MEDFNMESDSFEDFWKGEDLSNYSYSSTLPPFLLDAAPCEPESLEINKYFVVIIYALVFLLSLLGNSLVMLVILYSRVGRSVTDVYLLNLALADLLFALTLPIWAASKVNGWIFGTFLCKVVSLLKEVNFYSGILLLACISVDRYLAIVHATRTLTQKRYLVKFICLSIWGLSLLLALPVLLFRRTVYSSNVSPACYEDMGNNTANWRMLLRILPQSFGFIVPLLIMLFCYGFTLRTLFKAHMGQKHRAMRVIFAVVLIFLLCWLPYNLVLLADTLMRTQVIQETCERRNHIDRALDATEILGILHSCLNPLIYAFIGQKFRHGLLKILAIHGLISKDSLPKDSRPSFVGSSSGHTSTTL

[2] = target: T1, Human CXCR2; experiment: Calcium flux assay, HTS002C-CHEMISCREEN human CXCR2 calcium-optimized cell line; type: cell-based
Experimental: One of the signaling pathways downstream of CXCR2 activation that has a role in cell chemotaxis is characterized by calcium mobilization (flux). The ability of BKO-4A8-101c to inhibit human CXCR2 ligand-induced calcium flux was tested in the commercially available HTS002C-CHEMISCREEN™ human CXCR2 chemokine receptor calcium-optimized cell line.
The Fluo-4 NW calcium assay kit (Life Technologies) was used according to manufacturer's protocol for in-cell measurement of calcium mobilization, which was read using a FLIPR Tetra high-throughput cellular screening system (Molecular Devices). The peak response minus the basal response from each well was used to determine inhibition dose response curves fitting a four-parameter logistic equation and IC50 values.

CXCL1 Maximal Inhibition % ([1]; CXCL1 at EC50): 99%
CXCL5 Maximal Inhibition % ([1]; CXCL5 at EC50): 97%
CXCL8 Maximal Inhibition % ([1]; CXCL8 at EC50): 98%
CXCL1 Maximal Inhibition % ([2]; CXCL1 at EC50): 96%
CXCL8 Maximal Inhibition % ([2]; CXCL8 at EC50): 98%
Compound: CC[C@@H](Nc1c(Nc2cccc(C(=O)N(C)C)c2O)c(=O)c1=O)c1ccc(C)o1 [Antagonist 6, SCH 527123, reference compound]
